Conditions: for time the solution remains clear: aqueous solution at r.t.; for kinetic solubility in water: purified/de-ionized water, room temperature, agitated (briefly sonicated), not assay corrected; for time until a clear solution is obtained: weighed solid plus water, agitated at room temperature
Method: The measurement of the kinetic solubility was conducted as described in the experimental part.
0.5 ml of purified/de-ionized water (for instance water for chromatography) is added.
2.535 ml of purified/de-ionized water (for instance water for chromatography) is added to the solid using an adjustable volumetric pipette. The mixture is vigorously agitated at room temperature and briefly sonicated.
Then 0.785 ml of purified/de-ionized water is added.
Then 1.0 ml of purified/de-ionized water is added.

## Crystalline Sodium Salt of 5-methyl-(6S)-tetrahydrofolic Acid Comprising 1-(2-hydroxyethyl)-pyrrolidine [Example 6]
  time the solution remains clear: several hours
  kinetic solubility in water: greater than 100 mg per 1 ml of water
  time until a clear solution is obtained: within a few seconds

## Crystalline Sodium Salt of 5-methyl-(6S)-tetrahydrofolic Acid Comprising 2-dimethylaminoethanol [Example 8]
  time the solution remains clear: several hours
  kinetic solubility in water: greater than 55 mg per 1 ml of water
  time until a clear solution is obtained: within a few seconds

## Crystalline Sodium Salt of 5-methyl-(6S)-tetrahydrofolic Acid and Comprising 4-(2-hydroxy-ethyl)-morpholine [Example 1]
  time the solution remains clear: several hours
  kinetic solubility in water: greater than 54 mg per 1 ml of water
  time until a clear solution is obtained: within a few seconds

Source: patent US11066408B2, “Crystalline binary sodium salts of 5-methyl-(6S)-tetrahydrofolic acid with organic bases” (MERCK PATENT GMBH, priority 2017, dated 2021)
